Results published in patent publication US20060058286A1, “Methods of treating HIV infection” (priority 2004, published 2006).

Test system: HIV-1 NL4-3
Test: Two-drug combination study with Compound 1 (combination indices)
Type: cell-based
Settings: combination with Compound 1, EC50 ratio 2.5:1 (Compound 1:comparator); 95% CI in parentheses
Description: Virus and cell lines. The T-cell line, MT-2 was obtained through the AIDS Research and Reference Reagent Program, NIAID and was contributed by Dr. D. Richman. The cell line was cultured in RPMI 1640 medium supplemented with 10% fetal bovine serum, 2 mM L-glutamine and sub-cultured twice a week. The NL4-3 strain of HIV-1 was obtained from the AIDS Research and Reference Reagent Program. Both virus stocks were amplified and titered in MT-2 cells using a virus infectivity assay.
Drug Susceptibility and Cytotoxicity Assays. For drug susceptibility assays, MT-2 cells were infected with HIV-1 NL4-3 at an MOI of 0.001, and seeded into 96-well microtiter plates (2.5×10^5 cells/ml) containing serial dilutions of test compounds. […] On day-five post-infection, 20 μl from each well was harvested and quantitated by a reverse transcriptase (RT) assay or an MTS assay. […] Cell viability was determined by an XTT assay. The CC50 values were calculated by using the exponential form of the median effect equation as mentioned below for calculation of EC50.
Analysis of Drug Combination Effects. For determination of CI values, drugs were diluted in a fixed ratio and multiple ratios were analyzed. […]
To assess antiviral effects of different drug combination treatments, combination indices (CIs) were calculated according to Chou and Rideout. […]

CC(C)(C)NC(=O)[C@@H]1C[C@@H]2CCCC[C@@H]2CN1C[C@@H](O)[C@H](Cc1ccccc1)NC(=O)[C@H](CC(N)=O)NC(=O)c1ccc2ccccc2n1 [Saquinavir, saquinavir]
Combination Indices at 90% HIV Inhibition (Confidence Interval): 0.82 (0.49, 1.15)
